Assay outcomes as filed in PubChem.
Rows were chosen to be rich in hits. Some 0.43% of all compounds tested hit in one or more screens of this group.
HCMV UL50-53 inh – inhibitors of HCMV UL50-UL53 nuclear egress complex interaction; HTRF UL50-UL53 interaction, normalized percent inhibition; 190,000 compounds, 0.15% hits; inhibition, % (no concentration beside the values); in the data active = inhibition above about 27%, passing the limit was not always enough
GIV-Gai inh – GIV-Galpha-i interaction inhibition. P08753. Galpha-i3/FITC-GIV peptide fluorescence polarization, 90 min; active compounds read low; scaled: aluminum fluoride 0%, vehicle 100%. percent of control (FP), % (test concentration not listed). 210,000 compounds, 0.42% hits. AID 1224905;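 active = replicate mean at 85% of control or lower, very high polarization wells dropped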;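 also: lower values mean more displacement of the GIV peptide from Galpha-i3; wells of about 15 µL received 100 nL stock; the first replicate is given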
GIV Gai FP conf – confirmation of inhibitors of GIV binding to rat Galpha-i3; shares compounds with GIV-Gai inh; FITC-GIV peptide binding to Galphai3, fluorescence polarization; hits give low values; fluorescence polarization, mP at 100 µM; 580 compounds, 38% hits; AID 1259350;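 active = inhibition score of 15 or more, meaning 100 minus mean polarization as percent of control over three replicates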;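 also: lower mP means peptide displaced from Galphai3 so more inhibition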
GIV Gai AS conf – GIV-Galpha-i3 inhibition, AlphaScreen confirmation. AID 1259351. AlphaScreen counts at 100 µM. AlphaScreen Galphai3-GIV binding, purified proteins, 90 min; hits give low values. 580 compounds, 39% hits. shares compounds with GIV-Gai inh;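 active = inhibition score at or above a set limit, where the score is 100 minus the three-replicate mean percent of control signal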
Numbers stand for hits; n = inactive; x = no result.

SMILES	HCMV UL50-53 inh	GIV-Gai inh	GIV Gai FP conf	GIV Gai AS conf
CCOC(=O)CC1=CC(=O)N(CC(=O)N(C)c2ccccc2)c2ccccc2N1	n	n	x	x
Cc1ccc(N2C(=O)/C(=C\c3ccc(C(C)C)cc3)C3=C2C(=O)N(c2ccc(C)cc2)C3c2ccccc2)cc1 (stereo not drawn)	x	85	n	n
COc1ccccc1/C=C1\C(=O)N(c2ccc(C)cc2)C2=C1C(c1ccccc1)N(c1ccc(C)cc1)C2=O (stereo not drawn)	x	n	x	x
Cc1cc(C)n2nc3nc(N4CCCC4)nc(-c4ccccc4)c3c2n1	n	n	x	x
COc1ccc(-c2nc(N3CCC(C)CC3)nc3nn4c(C)cc(C)nc4c23)cc1	n	n	n	n
O=C1/C(=C/c2ccncc2)CCC/C1=C\c1ccncc1	n	51	51	18754
O=C1/C(=C/c2cccnc2)CCCC/C1=C\c1cccnc1	n	x	x	x
CCCCCN1C(C(=O)c2ccccc2)=C(NC(=O)c2ccc(C)cc2)c2ccccc2S1(=O)=O	n	n	x	x
CCN1C(C(=O)c2ccccc2)=C(NC(=O)c2ccccc2)c2ccccc2S1(=O)=O	n	55	20	n
Nc1nonc1C(=O)NN=c1c(=O)c2ccccc2c1=O	n	80	n	25933
Nc1nonc1C(=O)NCCN=Cc1ccccc1O	n	n	x	x
O=C(CN1C(=O)CSc2ccc(C(=O)N3CCCC3)cc21)NCc1ccc(Cl)cc1	n	n	x	x
CC(C)(C)c1csc(-c2csc(S(=O)(=O)NC3CCCCC3)c2)n1	x	n	x	x
CCOC(=O)c1c(C)n(OCc2ccccc2)c2ccc3nonc3c12	x	n	x	x
c1ccc(COn2c3c(c4c5nonc5ccc42)CCCC3)cc1	n	52	49	18180
Cc1cccc(NC(=O)C(F)(F)C(F)(F)C(F)(F)F)n1	n	65	n	n
Cc1cccc(NC(=O)c2ccco2)n1	n	n	x	x
CCOc1cc(/C=C2\SC(=S)NC2=O)cc(Cl)c1OC(=O)c1ccc(OC)cc1	x	n	x	x
CCOc1cc(C=C2C(=O)NC(=O)NC2=O)cc(Cl)c1OC(=O)c1ccc(OC)cc1	49	75	n	n
O=C(Nc1cccc(F)c1F)C1CCN(c2ncccn2)CC1	n	n	n	n
Cc1ccc(NC(=O)C2CCN(c3ncccn3)CC2)cc1F	n	n	x	x
Cc1[nH]c(-c2nnc(C3CC3)o2)c(C)c1S(=O)(=O)N1CCCCC1	x	n	x	x
COc1ccc(-n2c3nc(=O)[nH]c(=O)c-3cc3ccccc32)cc1	x	71	n	8986
Cc1ccc(-n2c3nc(=O)[nH]c(=O)c-3cc3ccccc32)cc1Cl	x	n	x	x
Cc1sc(-c2nc(C(C)C)cs2)cc1S(=O)(=O)NCCCN1CCCC1	x	n	x	x
SMILES	HCMV UL50-53 inh	GIV-Gai inh	GIV Gai FP conf	GIV Gai AS conf
Cc1ccc(C(=O)Nc2ccc(C(=O)N3CCC(C(=O)NC(C)C)CC3)cc2)cc1	x	n	x	x
C=CCOc1ccc(C(C2=C(O)CC(C)(C)CC2=O)C2C(=O)CC(C)(C)CC2=O)cc1 (stereo not drawn)	x	n	x	x
CCc1ccc(S(=O)(=O)/N=C2/C=C(Nc3ccccc3)C(=O)c3ccccc32)cc1	x	n	x	x
CCc1ccc(S(=O)(=O)/N=C2\C=CC(=O)c3ccccc32)cc1	x	5.6	12	1607
CCN(C(=O)CSc1nc2[nH]ncc2c(=O)n1-c1ccc(Br)cc1)c1cccc(C)c1	x	n	x	x
CN1C(=O)/C(=C/c2cn(CC(=O)N3CCCC3)c3ccccc23)C(=O)NC1=S	n	n	x	x
CCOc1cccc(N2C(=O)/C(=C/c3cn(CC(=O)N4CCOCC4)c4ccccc34)C(=O)NC2=S)c1	n	82	n	n
CCCN(CCC)CCNS(=O)(=O)c1ccc2c(c1)N(C(C)=O)CCCS2	n	n	x	x
CN1CCN(C(CNC(=O)c2ccc(Cl)cc2)c2ccc3c(c2)OCO3)CC1 (stereo not drawn)	n	n	x	x
COC(=O)c1c(N)c(C#N)c2n1CCCC2	n	n	x	x
COC(=O)c1c(N)c(C#N)c2n1CCC2	x	80	49	20250
O=C(c1ccccc1Br)N1CCN(C2=NS(=O)(=O)c3ccccc32)CC1	x	n	x	x
CC(C)(O)CC1(CO)CCCCC1	n	n	n	n
Cc1ccsc1-c1nc(-c2cc3c(C)nn(-c4ccccc4)c3s2)no1	n	41	n	n
Cc1nc(C)c(-c2nc(-c3cc4c(C)nn(-c5ccccc5)c4s3)no2)s1	n	n	x	x
CCN1CCN(c2ccc(N3CCN(C(=O)c4cc(OC)c(OC)c(OC)c4)CC3)nn2)CC1	n	n	x	x
CC1=C(C)C(=O)c2ccccc2C1=O	n	n	x	x
CC1(C)CCC2=C(O1)c1ccccc1C(=O)C2=O	n	54	54	n
CCCCOc1ccccc1C(=O)NCC(=O)NN	n	n	x	x
